Measurements reported in PMC7988488 (The Journal of Biological Chemistry, 2021).

System: RBL-2H3 cells
Assay: β-Hexosaminidase release from RBL-2H3 cells
Format: cell-based
Conditions: HNTX-III analogues at 180 μg/ml, 0.5 h, 37 °C, absorbance 405 nm, control 1.13 ± 0.59, C48/80 positive drug, concentration not given, mean ± SD, n = 3 to 6
Description: β-Hexosaminidase release was performed as described ([61]). RBL-2H3 cells were cultured in Dulbecco’s modified Eagle’s medium containing 10% fetal bovine serum in a humidified atmosphere of 5% CO2 at 37 °C. RBL-2H3 cells (2 × 10^5/cell) were washed three times with prewarmed Tyrode’s buffer and pretreated with HNTX-III analogues at 180 μg/ml for 0.5 h at 37 °C in 5% CO2. To determine the total amount of β-hexosaminidase released, Tyrode’s buffer containing 1% (v/v) Triton X-100 was added to three or four wells. […] The enzyme reaction was stopped by the addition of 0.2 M glycine buffer (pH 10.7), and the reaction product was measured at 405 nm. The percentage of degranulation was calculated using the following formula: % β-hexosaminidase release =(absorbance supernatant−absorbance vehicle)/(absorbance Triton X-100−absorbance vehicle)×100

Hainantoxin-III [Compound 1]
Releasing rate of β-hexosaminidase (%): 1.68 ± 0.76%
